{
  "sequences": {"note": "Chains of the proteins cited; added tags and fusions are not shown. Residues count along the entry.", "UniProt P12822, 34-1310 limits assumed": "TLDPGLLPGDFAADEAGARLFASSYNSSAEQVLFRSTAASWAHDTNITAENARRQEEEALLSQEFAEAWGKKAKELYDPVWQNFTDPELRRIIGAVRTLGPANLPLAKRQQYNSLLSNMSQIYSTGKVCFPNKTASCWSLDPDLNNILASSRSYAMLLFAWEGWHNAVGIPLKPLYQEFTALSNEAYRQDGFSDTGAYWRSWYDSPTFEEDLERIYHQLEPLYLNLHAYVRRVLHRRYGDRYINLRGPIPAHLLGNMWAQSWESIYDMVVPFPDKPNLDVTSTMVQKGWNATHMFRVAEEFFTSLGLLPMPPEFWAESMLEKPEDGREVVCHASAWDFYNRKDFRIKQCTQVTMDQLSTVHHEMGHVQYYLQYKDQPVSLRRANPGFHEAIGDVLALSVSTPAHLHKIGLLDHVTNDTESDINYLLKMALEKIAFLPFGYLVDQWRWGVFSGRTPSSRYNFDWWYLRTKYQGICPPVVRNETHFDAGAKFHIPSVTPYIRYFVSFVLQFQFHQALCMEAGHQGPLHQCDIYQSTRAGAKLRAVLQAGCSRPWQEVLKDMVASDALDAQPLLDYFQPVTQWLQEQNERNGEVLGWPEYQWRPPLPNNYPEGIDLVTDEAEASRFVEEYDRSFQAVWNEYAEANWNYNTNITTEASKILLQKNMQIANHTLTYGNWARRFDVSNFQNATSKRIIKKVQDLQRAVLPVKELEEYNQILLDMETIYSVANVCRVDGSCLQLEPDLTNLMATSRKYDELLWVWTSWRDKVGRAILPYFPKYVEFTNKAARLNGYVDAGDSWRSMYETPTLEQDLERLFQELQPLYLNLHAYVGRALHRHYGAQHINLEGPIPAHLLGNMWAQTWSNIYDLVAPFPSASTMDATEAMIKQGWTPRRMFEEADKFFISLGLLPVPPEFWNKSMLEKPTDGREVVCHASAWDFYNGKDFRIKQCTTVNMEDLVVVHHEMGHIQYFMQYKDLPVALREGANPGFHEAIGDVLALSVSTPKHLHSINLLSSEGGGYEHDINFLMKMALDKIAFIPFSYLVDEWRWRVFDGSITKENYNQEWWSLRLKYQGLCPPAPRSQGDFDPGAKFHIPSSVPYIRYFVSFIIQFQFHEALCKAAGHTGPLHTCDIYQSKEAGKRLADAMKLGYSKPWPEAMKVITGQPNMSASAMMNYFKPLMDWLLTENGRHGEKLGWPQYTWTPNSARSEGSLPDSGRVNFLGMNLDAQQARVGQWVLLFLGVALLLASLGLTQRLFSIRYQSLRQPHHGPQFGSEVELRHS"},
  "source": "ChEMBL document CHEMBL1123066",
  "about": "“N alpha-(diphenoxyphosphoryl)-L-alanyl-L-proline, N alpha-[bis (4-nitrophenoxy)phosphoryl]-L-alanyl-L-proline, and N alpha-[ (2-phenylethyl)phenoxyphosphoryl]-L-alanyl-L-proline: releasers of potent inhibitors of angiotensin converting enzyme at physiological pH and temperature” (J Med Chem, 1985)",
  "data": [
    {"target": "Angiotensin-converting enzyme (Oryctolagus cuniculus, UniProt P12822)", "assay": "Inhibition of Angiotensin I converting enzyme from rabbit lungs at pH 7.5", "units": {"Ki": "nM"}, "values": [
      {"smiles": "COP(=O)(O)N[C@@H](C)C(=O)N1CCC[C@H]1C(=O)O", "Ki": 2.6},
      {"smiles": "CCOP(=O)(O)N[C@@H](C)C(=O)N1CCC[C@H]1C(=O)O", "Ki": 1.2},
      {"smiles": "CC(C)OP(=O)(O)N[C@@H](C)C(=O)N1CCC[C@H]1C(=O)O", "Ki": 1.4}
    ]}
  ]
}
